Experimental data: ChEMBL document CHEMBL4834473, “Novel hydroxybenzylamine-deoxyvasicinone hybrids as anticholinesterase therapeutics for Alzheimer's disease” (Bioorg Med Chem, 2021)

Assay: Selectivity index, ratio of IC50 for equine serum BChE to IC50 for electric eel AChE

O=c1c2ccccc2nc2n1CCC2 [DEOXYVASICINONE]
Ratio IC50: 1.04
